Data on one substance can be found in paper PMC4309560, “Creating Novel Activated Factor XI Inhibitors through Fragment Based Lead Generation and Structure Aided Drug Design” (PLoS ONE, 2015).

Sequences of proteins named here, by UniProt entry; tags and fusion partners are left off. Residues count along the entry.
UniProt P03951, 19-387: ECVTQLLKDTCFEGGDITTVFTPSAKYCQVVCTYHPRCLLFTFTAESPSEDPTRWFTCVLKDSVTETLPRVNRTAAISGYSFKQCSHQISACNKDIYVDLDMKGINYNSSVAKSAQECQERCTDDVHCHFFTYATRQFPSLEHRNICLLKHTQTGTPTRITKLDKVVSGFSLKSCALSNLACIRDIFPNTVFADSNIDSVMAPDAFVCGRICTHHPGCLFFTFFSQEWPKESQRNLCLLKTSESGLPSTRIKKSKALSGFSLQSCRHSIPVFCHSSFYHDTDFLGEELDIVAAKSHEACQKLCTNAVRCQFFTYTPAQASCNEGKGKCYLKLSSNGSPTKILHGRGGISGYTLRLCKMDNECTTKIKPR
UniProt P03951, 388-625: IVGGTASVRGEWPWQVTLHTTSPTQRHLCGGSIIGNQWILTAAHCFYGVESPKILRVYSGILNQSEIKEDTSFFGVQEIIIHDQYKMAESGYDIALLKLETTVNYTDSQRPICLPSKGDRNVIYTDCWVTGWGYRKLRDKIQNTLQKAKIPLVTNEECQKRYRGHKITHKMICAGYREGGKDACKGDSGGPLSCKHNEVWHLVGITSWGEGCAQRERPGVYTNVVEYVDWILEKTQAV

The target of the test is T1, Human FXIa (Homo sapiens, UniProt P03951).
T1 construct: purchased HTI, Essex Junction, USA
The test is described as follows: FXIa enzymatic chromogenic assay. The format is biochemical.

Regarding “6-methyl-3,4-dihydro-1H-quinolin-2-one [Compound 17]”, the half-maximal inhibitory concentration (IC50) was greater than 1000 µM.
